{
  "source": "PubChem BioAssay AID1236",
  "about": "(Emory University Molecular Libraries Screening Center, 2008)",
  "note": "This is a selection; strong and weak results do not stand in their true shares. Some results for these compounds are left out of this collection, so the calls shown say nothing about other tests. The source made the active and inactive calls.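 The calls were made as follows: active = inhibition above about 50% (limit read from the data); inactive = the rest.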",
  "data": [
    {"tested_on": "calpain II (m-calpain), Sus scrofa", "assay": "inhibitors of pig calpain II, primary screen, biochemical, fluorogenic peptide substrate, 1536-well (AID 1236)", "details": "purified calpain II, 30 min, at 16 µM, stronger effect = higher value", "values": [
      {"molecule": "O=C(NCC1(N2CCCCC2)CCCCC1)c1cc([N+](=O)[O-])ccc1Cl", "inhibition": "inactive: 27.1%"},
      {"molecule": "CCN(CC)CC(C)C(C)OC(=O)C(O)(c1ccccc1)c1ccccc1", "note": "(stereo unspecified)", "inhibition": "inactive: 2.11%"},
      {"molecule": "CC(C)N1C(=O)CC2(CCN(CCOC(=O)C(O)(c3ccccc3)c3ccccc3)CC2)C1=O", "inhibition": "inactive: -10.4%"},
      {"molecule": "Cc1ccccc1C(=O)NCC1(N2CCCCC2)CCCCC1", "inhibition": "inactive: 12.1%"},
      {"molecule": "CN(C)C1CCCC1OC(=O)C(O)(c1ccccc1)c1ccccc1", "note": "(stereo unspecified)", "inhibition": "inactive: -5.74%"},
      {"molecule": "CCN1CCCC(OC(=O)C2(O)c3ccccc3C=Cc3ccccc32)C1", "note": "(stereo unspecified)", "inhibition": "inactive: -4.12%"},
      {"molecule": "C=CCN1CCN(CCOC(=O)C(O)(c2ccccc2)c2ccccc2)CC1", "inhibition": "inactive: -2.3%"},
      {"molecule": "COc1cccc(C(=O)NCC2(N3CCCCC3)CCCCC2)c1", "inhibition": "inactive: -3.36%"},
      {"molecule": "O=C(OC1CN2CCC1CC2)C(CO)(c1ccccc1)c1ccccc1", "note": "(stereo unspecified)", "inhibition": "inactive: -29.2%"},
      {"molecule": "CN(C)c1cccc(C(=O)NCC2(N(C)C)CCCCC2)c1", "inhibition": "inactive: -41%"},
      {"molecule": "COc1ccc(Br)c(C(=O)NCC2(N3CCCCC3)CCCCC2)c1", "inhibition": "inactive: 15.6%"}
    ]}
  ]
}
